For assay [1], the target named is T1, R282H mutant channel (Nav1.5) (Homo sapiens, UniProt Q14524, R282H).
T1 construct: expressed in transfected cells; host or cells: HEK293
Put plainly: Whole cell patch clamp of sodium currents in HEK293 cells co-expressing R282H mutant channel and channel fragments. It counts as cell-based. The following applies: for peak sodium current density compared to WT / restoration of whole cell sodium current / whole cell current, % of wild type level: HEK293 cells; for peak sodium current density compared to WT: FIG. 6B; for restoration of whole cell sodium current: R282H mutant co-expressed with peptide; for whole cell current, % of wild type level: R282H mutant channel co-transfected with channel fragment. (Patch clamp records ionic current or voltage across a cell membrane.)

Assay [2] concerns the target T2, H558R-SCN5A+R282H-C373Y-SCN5A channels (Homo sapiens, UniProt Q14524, C373Y/R282H).
T2 construct: expressed in transfected cells; host or cells: HEK293
Put plainly: MTSET block of whole-cell sodium current, H558R-SCN5A+R282H-C373Y-SCN5A. It counts as cell-based. The following applies: current remaining after 1 μmol/L MTSET.

Another assay concerns the target YFP-1022/R282H (Homo sapiens, UniProt Q14524, R282H). Put plainly: FRET folding study of mutant channel construct in HEK293 cells. The following applies: YFP-1022/R282H co-expressed with peptide or in presence of drug.

The source of these data is patent publication US7625863B2, “Treatment of patients with dysfunctional cardiac sodium channels” (The MetroHealth System, priority 2006, dated 2009).

With “NSTARESESHHTSLLVPWPL [H558-20aa, corresponding 20 amino acid fragment of the wild type channel, reference compound]”, the “peak sodium current density compared to WT” value in assay [1] is listed as “significantly lower”. Further, the “restoration of whole cell sodium current” value in assay [1] was “but not when co-expressed with the WT peptide”; in assay [1] (listed as H558-20a), “restoration of current was not observed”.
`C[N+](C)(C)CCSS(C)(=O)=O.[Br-]` [MTSET, [2-(trimethylammonium)ethyl]methanethiosulfonate bromide]: in assay [2], the “Peak Current Density” value is −259 ± 65 pA/pF and the “Steady-State Inactivation (V1/2)” value was −93.1 ± 3.4 mV.
For NSTAGESESHRTSLLVPWPL [R558-20aa], in assay [1], the “peak sodium current density compared to WT” value is reported as “similar”; the “whole cell current, % of wild type level” value is reported as 75 % of wild type level; the “restoration of whole cell sodium current” value is listed as “Current was restored”. Besides, in assay [1] (rescued R282H channels, FIG. 7D), the “Time Constant of Inactivation compared to WT” value is on record as “significantly slower”. Besides, in assay [1] (rescued R282H currents, HEK293), the “Conductance (V1/2)” value is −36.8 ± 1.6 mV and the “Steady State Inactivation (V1/2)” value is given as −82.8 ± 1.5 mV. In addition, the “FRETc compared with non-mutated YFP-1022” value in the assay with YFP-1022/R282H is on record as “similar”.
As for “ESHRTSLLVP [R558-10aa, 10 amino acid channel fragment containing the H558R polymorphism]”, in assay [1], the “whole cell current, % of wild type level” value is listed as 70 % of wild type level and the “restoration of whole cell sodium current” value is “Current was restored”.
